Test results: patent publication EP4660190A1, “PHARMACEUTICALLY ACCEPTABLE SALT OF COMPOUND AND PREPARATION METHOD THEREFOR” (Jiangsu Chia Tai Fenghai Pharmaceutical Co., Ltd., priority 2023, dated 2024)

Assay: SOD1-G93A ALS mice, body weight
Conditions: 25 mg/kg p.o., compared to the solvent group

With Nc1nc2ccc(OC(F)(F)F)cc2s1 [Riluzole, reference compound] the “effect on the body weight of the mice” value was “no significant effect”.
